Experiments:
Assay in all cases: Kinase Profiling Assay
Type in all cases: biochemical
Conditions in all cases: 100 μM
SGK2(h) = molecular target: T1, SGK2(h) (Homo sapiens, UniProt Q9HBY8)
T1 sequence (Q9HBY8 1-367): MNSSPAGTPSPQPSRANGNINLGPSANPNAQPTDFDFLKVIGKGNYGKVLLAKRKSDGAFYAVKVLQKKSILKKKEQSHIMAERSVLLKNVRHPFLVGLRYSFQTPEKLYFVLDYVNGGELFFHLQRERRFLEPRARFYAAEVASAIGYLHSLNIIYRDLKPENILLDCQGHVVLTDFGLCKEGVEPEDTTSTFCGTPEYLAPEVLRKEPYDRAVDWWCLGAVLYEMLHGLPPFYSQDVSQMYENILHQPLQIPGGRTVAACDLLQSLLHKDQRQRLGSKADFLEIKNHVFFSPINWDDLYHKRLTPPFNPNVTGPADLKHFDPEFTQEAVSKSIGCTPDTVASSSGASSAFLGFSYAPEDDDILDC

By UniProt entry, the sequences of proteins in these tests, tags left out. Where a name states a change or a piece, a line headed by the entry shows the natural chain unless it says otherwise. Residues count along the entry.
UniProt O14920: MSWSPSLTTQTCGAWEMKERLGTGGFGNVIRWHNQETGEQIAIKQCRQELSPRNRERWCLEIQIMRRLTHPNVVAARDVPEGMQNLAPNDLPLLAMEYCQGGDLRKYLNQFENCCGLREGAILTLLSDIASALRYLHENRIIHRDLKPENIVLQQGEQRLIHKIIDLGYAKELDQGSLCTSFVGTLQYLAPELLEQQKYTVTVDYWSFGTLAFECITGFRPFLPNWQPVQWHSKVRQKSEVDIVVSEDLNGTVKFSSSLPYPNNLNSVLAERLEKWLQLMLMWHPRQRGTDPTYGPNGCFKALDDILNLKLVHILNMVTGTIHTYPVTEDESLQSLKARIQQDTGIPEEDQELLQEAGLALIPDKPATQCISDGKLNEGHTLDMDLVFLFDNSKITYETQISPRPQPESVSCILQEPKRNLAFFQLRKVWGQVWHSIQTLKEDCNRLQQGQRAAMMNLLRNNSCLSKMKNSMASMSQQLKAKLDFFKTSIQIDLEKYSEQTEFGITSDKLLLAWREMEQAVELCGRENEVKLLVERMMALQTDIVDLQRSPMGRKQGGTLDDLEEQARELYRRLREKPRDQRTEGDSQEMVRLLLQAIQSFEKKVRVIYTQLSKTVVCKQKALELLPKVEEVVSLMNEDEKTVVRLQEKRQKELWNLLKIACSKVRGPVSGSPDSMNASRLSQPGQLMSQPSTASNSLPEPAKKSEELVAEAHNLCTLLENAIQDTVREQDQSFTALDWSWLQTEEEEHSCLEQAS
UniProt O96017, whole entry: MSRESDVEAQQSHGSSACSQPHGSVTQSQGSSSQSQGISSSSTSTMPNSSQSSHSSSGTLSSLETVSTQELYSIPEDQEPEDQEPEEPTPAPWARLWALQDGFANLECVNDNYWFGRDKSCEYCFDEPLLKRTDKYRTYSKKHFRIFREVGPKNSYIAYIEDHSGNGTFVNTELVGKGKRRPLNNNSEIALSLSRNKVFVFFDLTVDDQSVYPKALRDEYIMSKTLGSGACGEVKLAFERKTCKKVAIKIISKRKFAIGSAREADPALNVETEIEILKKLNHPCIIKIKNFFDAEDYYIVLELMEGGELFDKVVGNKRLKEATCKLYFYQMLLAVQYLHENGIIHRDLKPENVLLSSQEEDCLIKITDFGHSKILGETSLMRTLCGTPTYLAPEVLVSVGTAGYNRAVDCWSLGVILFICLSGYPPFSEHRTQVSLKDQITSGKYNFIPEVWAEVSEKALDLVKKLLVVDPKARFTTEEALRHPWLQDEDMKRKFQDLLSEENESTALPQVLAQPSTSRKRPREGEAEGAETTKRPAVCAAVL
UniProt Q15418, whole entry: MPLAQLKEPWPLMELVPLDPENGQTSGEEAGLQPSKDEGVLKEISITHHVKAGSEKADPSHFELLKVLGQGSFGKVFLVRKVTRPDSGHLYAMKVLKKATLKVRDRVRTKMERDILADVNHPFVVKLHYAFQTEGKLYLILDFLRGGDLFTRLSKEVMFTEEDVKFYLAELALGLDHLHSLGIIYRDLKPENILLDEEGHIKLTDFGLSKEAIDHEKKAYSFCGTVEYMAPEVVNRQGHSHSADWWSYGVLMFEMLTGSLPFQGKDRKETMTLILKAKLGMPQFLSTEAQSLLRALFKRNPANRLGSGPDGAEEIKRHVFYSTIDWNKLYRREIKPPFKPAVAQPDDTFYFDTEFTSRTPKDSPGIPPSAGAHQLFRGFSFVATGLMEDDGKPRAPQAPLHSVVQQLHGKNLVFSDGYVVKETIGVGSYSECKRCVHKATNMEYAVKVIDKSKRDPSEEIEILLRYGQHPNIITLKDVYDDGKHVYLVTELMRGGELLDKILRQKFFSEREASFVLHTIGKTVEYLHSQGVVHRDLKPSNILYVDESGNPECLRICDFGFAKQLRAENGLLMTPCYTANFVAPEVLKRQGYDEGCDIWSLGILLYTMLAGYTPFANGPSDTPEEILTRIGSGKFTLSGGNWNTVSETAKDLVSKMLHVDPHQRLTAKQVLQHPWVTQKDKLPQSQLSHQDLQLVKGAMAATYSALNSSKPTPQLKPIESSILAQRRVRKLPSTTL
UniProt Q9H422: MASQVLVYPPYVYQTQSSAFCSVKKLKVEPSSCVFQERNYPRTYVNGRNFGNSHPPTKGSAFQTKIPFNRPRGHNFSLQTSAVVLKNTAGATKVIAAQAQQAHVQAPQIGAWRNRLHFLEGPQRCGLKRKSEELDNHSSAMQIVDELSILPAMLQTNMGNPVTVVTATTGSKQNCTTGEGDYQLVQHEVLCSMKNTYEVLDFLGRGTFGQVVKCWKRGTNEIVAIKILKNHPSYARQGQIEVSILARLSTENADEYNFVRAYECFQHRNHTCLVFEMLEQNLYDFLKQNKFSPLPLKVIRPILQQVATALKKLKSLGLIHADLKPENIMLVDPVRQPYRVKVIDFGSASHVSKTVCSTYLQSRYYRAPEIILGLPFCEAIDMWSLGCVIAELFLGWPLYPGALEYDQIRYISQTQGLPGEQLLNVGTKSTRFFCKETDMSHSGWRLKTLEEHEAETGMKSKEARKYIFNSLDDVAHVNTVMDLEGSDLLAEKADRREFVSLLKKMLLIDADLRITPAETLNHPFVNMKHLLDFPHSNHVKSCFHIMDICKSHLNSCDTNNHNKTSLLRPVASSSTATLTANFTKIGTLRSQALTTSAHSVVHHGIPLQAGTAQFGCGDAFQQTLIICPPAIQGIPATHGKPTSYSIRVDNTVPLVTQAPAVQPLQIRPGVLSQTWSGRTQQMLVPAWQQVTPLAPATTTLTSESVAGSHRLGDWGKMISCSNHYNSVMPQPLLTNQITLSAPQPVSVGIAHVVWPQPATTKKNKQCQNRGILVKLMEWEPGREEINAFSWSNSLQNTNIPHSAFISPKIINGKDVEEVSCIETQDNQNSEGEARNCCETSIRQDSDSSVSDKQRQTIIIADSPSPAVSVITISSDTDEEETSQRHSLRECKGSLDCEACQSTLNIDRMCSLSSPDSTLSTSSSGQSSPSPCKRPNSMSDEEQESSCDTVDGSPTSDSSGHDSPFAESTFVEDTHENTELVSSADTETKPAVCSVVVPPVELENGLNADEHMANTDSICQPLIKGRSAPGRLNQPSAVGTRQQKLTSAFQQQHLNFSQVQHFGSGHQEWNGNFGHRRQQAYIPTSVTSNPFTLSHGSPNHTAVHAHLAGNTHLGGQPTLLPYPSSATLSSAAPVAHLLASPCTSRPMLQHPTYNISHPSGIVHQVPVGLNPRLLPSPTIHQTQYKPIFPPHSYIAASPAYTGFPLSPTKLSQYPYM
UniProt P53355: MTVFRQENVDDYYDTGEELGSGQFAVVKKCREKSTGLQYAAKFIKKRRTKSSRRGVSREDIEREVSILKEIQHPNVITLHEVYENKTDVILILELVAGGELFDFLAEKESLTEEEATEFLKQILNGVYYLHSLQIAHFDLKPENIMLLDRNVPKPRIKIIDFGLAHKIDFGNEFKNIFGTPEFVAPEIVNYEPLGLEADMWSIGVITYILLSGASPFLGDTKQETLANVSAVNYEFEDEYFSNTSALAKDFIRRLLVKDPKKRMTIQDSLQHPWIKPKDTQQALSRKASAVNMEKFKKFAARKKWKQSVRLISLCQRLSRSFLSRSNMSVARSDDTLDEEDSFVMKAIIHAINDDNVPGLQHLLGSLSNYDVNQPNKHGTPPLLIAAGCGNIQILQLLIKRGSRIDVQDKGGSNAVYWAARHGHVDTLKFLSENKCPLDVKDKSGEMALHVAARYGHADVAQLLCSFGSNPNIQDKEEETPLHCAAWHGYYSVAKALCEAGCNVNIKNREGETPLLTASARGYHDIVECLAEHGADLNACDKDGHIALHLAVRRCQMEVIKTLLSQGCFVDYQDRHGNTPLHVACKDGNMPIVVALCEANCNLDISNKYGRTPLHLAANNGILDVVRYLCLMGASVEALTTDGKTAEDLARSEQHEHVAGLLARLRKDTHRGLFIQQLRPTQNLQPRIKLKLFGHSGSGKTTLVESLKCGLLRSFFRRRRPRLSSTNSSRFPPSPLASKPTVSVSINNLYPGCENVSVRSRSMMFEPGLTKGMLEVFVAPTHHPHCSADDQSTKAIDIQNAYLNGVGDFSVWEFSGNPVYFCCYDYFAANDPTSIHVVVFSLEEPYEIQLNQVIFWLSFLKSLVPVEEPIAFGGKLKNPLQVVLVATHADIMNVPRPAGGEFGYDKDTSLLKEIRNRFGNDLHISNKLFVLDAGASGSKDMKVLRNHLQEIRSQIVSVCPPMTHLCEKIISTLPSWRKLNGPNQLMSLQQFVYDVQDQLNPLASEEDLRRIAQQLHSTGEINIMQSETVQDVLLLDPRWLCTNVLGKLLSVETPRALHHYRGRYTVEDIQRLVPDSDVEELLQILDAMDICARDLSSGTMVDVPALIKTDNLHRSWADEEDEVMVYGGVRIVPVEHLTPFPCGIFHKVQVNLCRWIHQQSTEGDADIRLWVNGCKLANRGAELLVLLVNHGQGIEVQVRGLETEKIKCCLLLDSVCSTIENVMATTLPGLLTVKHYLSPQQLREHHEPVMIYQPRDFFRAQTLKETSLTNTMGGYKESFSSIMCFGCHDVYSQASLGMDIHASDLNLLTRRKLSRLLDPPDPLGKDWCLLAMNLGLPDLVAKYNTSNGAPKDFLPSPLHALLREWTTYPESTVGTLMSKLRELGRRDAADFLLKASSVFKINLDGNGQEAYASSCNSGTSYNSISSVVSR
UniProt P16234, 24-1089 D842V: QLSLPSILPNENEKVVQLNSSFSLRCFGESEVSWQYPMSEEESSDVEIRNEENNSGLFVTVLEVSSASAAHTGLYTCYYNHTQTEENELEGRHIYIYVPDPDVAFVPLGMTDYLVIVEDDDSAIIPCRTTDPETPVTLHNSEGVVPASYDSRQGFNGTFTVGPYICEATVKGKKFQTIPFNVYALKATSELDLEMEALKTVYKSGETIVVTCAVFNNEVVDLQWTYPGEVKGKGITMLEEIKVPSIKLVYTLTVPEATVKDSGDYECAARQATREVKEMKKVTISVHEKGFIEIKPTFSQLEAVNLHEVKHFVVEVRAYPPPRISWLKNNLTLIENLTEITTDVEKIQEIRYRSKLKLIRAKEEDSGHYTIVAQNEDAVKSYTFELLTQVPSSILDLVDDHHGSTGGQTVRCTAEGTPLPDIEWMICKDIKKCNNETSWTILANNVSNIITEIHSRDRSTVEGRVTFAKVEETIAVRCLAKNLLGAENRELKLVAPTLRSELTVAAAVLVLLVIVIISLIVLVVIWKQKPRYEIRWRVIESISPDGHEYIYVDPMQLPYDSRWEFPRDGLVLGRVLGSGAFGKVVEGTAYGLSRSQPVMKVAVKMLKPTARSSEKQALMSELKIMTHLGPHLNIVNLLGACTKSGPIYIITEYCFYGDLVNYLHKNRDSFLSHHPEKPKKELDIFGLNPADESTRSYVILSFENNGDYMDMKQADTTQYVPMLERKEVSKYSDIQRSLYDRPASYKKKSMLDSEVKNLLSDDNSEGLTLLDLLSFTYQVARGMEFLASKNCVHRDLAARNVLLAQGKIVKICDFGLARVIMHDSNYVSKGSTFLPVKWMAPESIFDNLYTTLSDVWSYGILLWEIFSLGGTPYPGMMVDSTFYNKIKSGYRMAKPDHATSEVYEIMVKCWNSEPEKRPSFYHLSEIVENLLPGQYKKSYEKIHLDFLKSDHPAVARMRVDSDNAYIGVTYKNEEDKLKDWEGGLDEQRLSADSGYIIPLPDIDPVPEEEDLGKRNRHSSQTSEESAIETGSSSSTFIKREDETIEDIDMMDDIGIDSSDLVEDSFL

IKKβ(h) = IKKβ(h) (Homo sapiens, UniProt O14920)
IKKα(h) = molecular target: T2, IKKα(h) (Homo sapiens, UniProt O15111)
T2 sequence (O15111 1-745): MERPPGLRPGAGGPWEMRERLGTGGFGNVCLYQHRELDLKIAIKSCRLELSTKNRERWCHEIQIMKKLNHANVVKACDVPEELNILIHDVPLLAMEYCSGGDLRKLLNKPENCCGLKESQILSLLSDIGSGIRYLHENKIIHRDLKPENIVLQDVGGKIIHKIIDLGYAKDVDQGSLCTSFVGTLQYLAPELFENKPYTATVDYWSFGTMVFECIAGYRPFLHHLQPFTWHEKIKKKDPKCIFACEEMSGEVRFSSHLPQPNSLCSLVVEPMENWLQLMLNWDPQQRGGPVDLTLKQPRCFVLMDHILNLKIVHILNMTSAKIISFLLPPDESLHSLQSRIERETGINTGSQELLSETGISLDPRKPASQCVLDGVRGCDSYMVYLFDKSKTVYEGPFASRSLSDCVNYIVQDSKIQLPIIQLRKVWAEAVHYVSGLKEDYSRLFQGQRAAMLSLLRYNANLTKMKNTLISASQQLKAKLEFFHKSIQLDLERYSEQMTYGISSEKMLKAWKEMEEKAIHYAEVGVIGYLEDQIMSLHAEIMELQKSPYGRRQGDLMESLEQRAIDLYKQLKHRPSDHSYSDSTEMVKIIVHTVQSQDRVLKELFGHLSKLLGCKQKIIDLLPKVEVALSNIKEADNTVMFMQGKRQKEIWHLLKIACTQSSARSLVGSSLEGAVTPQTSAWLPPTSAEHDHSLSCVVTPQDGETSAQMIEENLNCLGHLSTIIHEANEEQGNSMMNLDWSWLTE

CHK2(h) = CHK2(h) (Homo sapiens, UniProt O96017)
MEK1(h) = MEK1(h) (Homo sapiens, UniProt Q02750)
Ab1(Q252H)(h) = Ab1(Q252H)(h) (Homo sapiens, UniProt P00519, Q252H)
cKit(V654A)(h) = cKit(V654A)(h) (Homo sapiens, UniProt P10721, V654A)
Ab1(Y253F)(h) = Ab1(Y253F)(h) (Homo sapiens, UniProt P00519, Y253F)
Rsk1(h) = Rsk1(h) (Homo sapiens, UniProt Q15418)
HIPK3(h) = HIPK3(h) (Homo sapiens, UniProt Q9H422)
Ret(V804M)(h) = Ret(V804M)(h) (Homo sapiens, UniProt P07949, V804M)
DAPK1(h) = DAPK1(h) (Homo sapiens, UniProt P53355)
PDGFRα(D842V)(h) = PDGFRα(D842V)(h) (Homo sapiens, UniProt P16234, D842V)
CHK1(h) = molecular target: T3, CHK1(h) (Homo sapiens, UniProt O14757)
T3 sequence (O14757 1-476): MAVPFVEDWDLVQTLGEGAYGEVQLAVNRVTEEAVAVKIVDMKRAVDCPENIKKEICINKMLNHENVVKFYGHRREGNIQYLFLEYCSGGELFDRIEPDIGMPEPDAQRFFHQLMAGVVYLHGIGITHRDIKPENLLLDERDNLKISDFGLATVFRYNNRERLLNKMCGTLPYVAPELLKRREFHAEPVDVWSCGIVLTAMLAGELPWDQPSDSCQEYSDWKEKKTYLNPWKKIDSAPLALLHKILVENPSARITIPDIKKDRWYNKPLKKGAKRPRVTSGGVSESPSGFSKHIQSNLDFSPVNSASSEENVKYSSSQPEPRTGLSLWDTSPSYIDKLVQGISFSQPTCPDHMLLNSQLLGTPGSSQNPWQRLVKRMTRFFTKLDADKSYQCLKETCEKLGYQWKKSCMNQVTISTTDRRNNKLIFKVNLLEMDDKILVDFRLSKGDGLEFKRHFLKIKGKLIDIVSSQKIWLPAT

Sequence: YARAAARQARAKALNRQLGVA (Mammalian) [MMI-0200]
- % activity (SGK2(h)): 119%
- % activity (IKKβ(h)): 109%
- % activity (IKKα(h)): 104%
- % activity (CHK2(h)): 105%
- % activity (MEK1(h)): 116%
- % activity (Ab1(Q252H)(h)): 107%
- % activity (cKit(V654A)(h)): 113%
- % activity (Ab1(Y253F)(h)): 102%
- % activity (Rsk1(h)): 102%
- % activity (HIPK3(h)): 105%
- % activity (Ret(V804M)(h)): 105%
- % activity (DAPK1(h)): 113%
- % activity (PDGFRα(D842V)(h)): 107%
- % activity (CHK1(h)): 115%
